Values of other authors in patent US8637321B2, “Lipidomics approaches for central nervous system disorders” (priority 2005, dated 2014).

Conditions: 26-week randomized trial of 317 schizophrenic patients; versus those randomized to aripiprazole; cited from earlier work

## Cc1cc2c(s1)Nc1ccccc1N=C2N1CCN(C)CC1 [Olanzapine, olanzapine]
  development of weight gain and total cholesterol/triglyceride elevations: more likely
